Earlier results on one molecule are cited in US6953810B2, “Nicotinamide biaryl derivatives useful as inhibitors of PDE4 isozymes” (Pfizer Inc, priority 2001, dated 2005).

The structures appear in SMILES notation.

The data set has as its system lung, BAL, airway and pleural eosinophilia. The settings on record: guinea pig, in vivo; cited from earlier work.

Consider `COc1ccc(C(=O)Nc2c(Cl)cncc2Cl)c2cccnc12` [Example D4418], for which the “inhibition of antigen-induced lung, BAL or airway eosinophilia” value is recorded as “active”.
